Apparent affinities of Ab-14 variants for a coronavirus HR2 peptide

Data: MIT Lincoln Laboratory AlphaSeq set, Li et al. 2023, doi:10.1038/s41467-023-39022-2, as distributed in FLAb.

All variants were tested on one target, the spike HR2 peptide PDVDLGDISGINAS (SARS-CoV-2).

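The parent was found by panning a naive human phage display library on the peptide. This is the validation round: designs drawn from the data on random variants, tested in the same kind of assay. Their group label is 14H_Ctrl (Ctrl: baseline library sampled from a position-specific scoring matrix, with some repeated check sequences). Affinity was read by AlphaSeq, a pooled yeast mating assay with surface-displayed partners. After mating in shaken culture at 30 °C for 16 h, diploids were selected and their barcode pairs sequenced. The ratio of observed to expected reads was calibrated, replicate by replicate, on BCL2-family standards whose Kd was known from biolayer interferometry. The assay was run in six technical replicates.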

Parent: Ab-14, a human scFv built as VH, a (GGGGS)3 linker, VL. Only the CDRs of the heavy chain vary.
VH: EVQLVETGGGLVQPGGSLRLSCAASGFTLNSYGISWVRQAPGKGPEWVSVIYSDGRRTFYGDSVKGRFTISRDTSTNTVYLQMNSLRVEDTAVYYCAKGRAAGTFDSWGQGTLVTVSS
VL: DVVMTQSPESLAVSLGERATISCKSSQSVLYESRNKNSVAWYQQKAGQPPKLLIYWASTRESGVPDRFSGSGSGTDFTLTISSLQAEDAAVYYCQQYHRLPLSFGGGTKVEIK

Each variant is given by its three heavy chain CDRs, as the data file delimits them; those of the parent are GFTLNSYGIS, VIYSDGRRTFYGDSVK, GRAAGTFDS. Affinities are written as log10 Kd with Kd in nM; a lower number is a better binder. Replicates are averaged; those with no signal do not enter the mean. "ND" marks a missing value. The strain was present, yet no cells mated with the target were sequenced in that replicate, which points to weak or no binding. The authors' rule: three or more of the six replicates give a measured affinity, fewer mean a poor binder.

{"CDR-H1": "GFTLGSYGIS", "CDR-H2": "VIYSDGERTFYIDSVK", "CDR-H3": "GAAAGTFDS", "replicates, log10 nM": "1.85 / 0.96 / 1.36 / 2.68 / 1.43 / 1.11", "mean, log10 nM": "1.57", "control signals": "0/18"}
{"CDR-H1": "GFTLNDYGIS", "CDR-H2": "VIYSDGRRTAYGDSVK", "CDR-H3": "GREAGTFSS", "replicates, log10 nM": "0.45 / 0.38 / 0.39 / 0.06 / 0.68 / 0.47", "mean, log10 nM": "0.41", "control signals": "0/18"}
{"CDR-H1": "GFTLNSYGIS", "CDR-H2": "VIYSDGRRTFYVDSVK", "CDR-H3": "GKAAGTFDV", "replicates, log10 nM": "ND / ND / ND / 0.75 / ND / ND", "mean, log10 nM": "0.75", "control signals": "0/18"}
{"CDR-H1": "GFTLNQYGIS", "CDR-H2": "VIYSDGRRTSYGDSVK", "CDR-H3": "GFATGTFDS", "replicates, log10 nM": "0.79 / 0.31 / 1.30 / 0.36 / 0.35 / 0.61", "mean, log10 nM": "0.62", "control signals": "0/18"}
{"CDR-H1": "GFTLNSYGIS", "CDR-H2": "VIYSDGRRTFYSDDVK", "CDR-H3": "HRAAGTFDH", "replicates, log10 nM": "ND / ND / ND / ND / ND / ND", "mean, log10 nM": "ND", "control signals": "0/18"}
{"CDR-H1": "GFTLNSYGIS", "CDR-H2": "VIYSDGRRTFYADSVK", "CDR-H3": "GRAAGQFDS", "replicates, log10 nM": "ND / ND / ND / ND / ND / ND", "mean, log10 nM": "ND", "control signals": "0/18"}
{"CDR-H1": "GFTLNSYGIS", "CDR-H2": "VIYSDGRRTFYKDSVK", "CDR-H3": "GRLAGTFDS", "replicates, log10 nM": "0.90 / ND / 1.05 / ND / ND / ND", "mean, log10 nM": "0.97", "control signals": "0/18"}
{"CDR-H1": "GFTLNSYGIS", "CDR-H2": "VIYSDGRRVFYGDSVK", "CDR-H3": "GQEAGTFTS", "replicates, log10 nM": "ND / ND / ND / ND / ND / ND", "mean, log10 nM": "ND", "control signals": "0/18"}
{"CDR-H1": "GFTLNSYGIS", "CDR-H2": "VIYSDGRRTFYGDSVK", "CDR-H3": "NRAAGTFDQ", "replicates, log10 nM": "ND / ND / ND / ND / ND / ND", "mean, log10 nM": "ND", "control signals": "0/18"}
{"CDR-H1": "KETLNSYGIS", "CDR-H2": "VIYADGRRTFYEDSVK", "CDR-H3": "GRVAGTFDS", "replicates, log10 nM": "0.13 / -0.35 / -0.12 / -0.22 / -0.16 / 0.26", "mean, log10 nM": "-0.07", "control signals": "0/18"}
{"CDR-H1": "GFTLNSYGIS", "CDR-H2": "VIYADGRRTFYGDSVK", "CDR-H3": "GRMAKTFDS", "replicates, log10 nM": "ND / ND / ND / ND / ND / ND", "mean, log10 nM": "ND", "control signals": "0/18"}
{"CDR-H1": "GETLNSYGIS", "CDR-H2": "VIYSDGRRTFYHDSVK", "CDR-H3": "GFAAGTFDS", "replicates, log10 nM": "ND / ND / 1.33 / 1.74 / ND / ND", "mean, log10 nM": "1.53", "control signals": "0/18"}
{"CDR-H1": "GFTLNSYGIS", "CDR-H2": "VISSDGRRTFYGDSVK", "CDR-H3": "GRAAGTFDS", "replicates, log10 nM": "ND / ND / ND / 2.50 / ND / ND", "mean, log10 nM": "2.50", "control signals": "0/18"}
{"CDR-H1": "GETLNSYGIS", "CDR-H2": "VIYSDGRRTAYHDSVK", "CDR-H3": "GRAAGTFDS", "replicates, log10 nM": "1.23 / 1.03 / 1.18 / 0.86 / 0.88 / 1.17", "mean, log10 nM": "1.06", "control signals": "2/18 (2.15)"}
{"CDR-H1": "GYTIRSYGIS", "CDR-H2": "VIYSDGNRTFYGDSVK", "CDR-H3": "GRVAGTFDS", "replicates, log10 nM": "ND / ND / ND / 1.63 / ND / ND", "mean, log10 nM": "1.63", "control signals": "1/18 (2.01)"}
{"CDR-H1": "GFNINDYGIS", "CDR-H2": "VIYSDGRRTFYGDSVK", "CDR-H3": "CAFAGRFFS", "replicates, log10 nM": "ND / ND / ND / ND / ND / ND", "mean, log10 nM": "ND", "control signals": "0/18"}
{"CDR-H1": "GITLNSYGIS", "CDR-H2": "VIYSDGRRTFYGDSVK", "CDR-H3": "GRAAGTFPS", "replicates, log10 nM": "ND / ND / ND / ND / ND / ND", "mean, log10 nM": "ND", "control signals": "0/18"}
{"CDR-H1": "GFNLNSYGIS", "CDR-H2": "VIYSDGRRTFYGDSVK", "CDR-H3": "GRAAGTIDS", "replicates, log10 nM": "ND / ND / ND / ND / ND / ND", "mean, log10 nM": "ND", "control signals": "0/18"}
{"CDR-H1": "GFTLNSYGIS", "CDR-H2": "VIYSDLRRTFYGDSVK", "CDR-H3": "GRLAGTFDS", "replicates, log10 nM": "ND / ND / ND / ND / ND / ND", "mean, log10 nM": "ND", "control signals": "0/18"}
{"CDR-H1": "GFTLNDYGYS", "CDR-H2": "VIYADGRRTFYSDSVK", "CDR-H3": "GRVAGTFDD", "replicates, log10 nM": "0.92 / 1.05 / 0.52 / 0.47 / 0.76 / 1.40", "mean, log10 nM": "0.85", "control signals": "0/18"}

For reference, 3 entries of the list once more:

{"CDR-H1": "GFTLNSYGIS", "CDR-H2": "VIYSDGRRTFYVDSVK", "CDR-H3": "GKAAGTFDV", "replicates, log10 nM": "ND / ND / ND / 0.75 / ND / ND", "mean, log10 nM": "0.75", "control signals": "0/18"}
{"CDR-H1": "GFTLNSYGIS", "CDR-H2": "VIYSDGRRTFYKDSVK", "CDR-H3": "GRLAGTFDS", "replicates, log10 nM": "0.90 / ND / 1.05 / ND / ND / ND", "mean, log10 nM": "0.97", "control signals": "0/18"}
{"CDR-H1": "GETLNSYGIS", "CDR-H2": "VIYSDGRRTFYHDSVK", "CDR-H3": "GFAAGTFDS", "replicates, log10 nM": "ND / ND / 1.33 / 1.74 / ND / ND", "mean, log10 nM": "1.53", "control signals": "0/18"}

Nonspecific signal, from three strains lacking the peptide, appeared in 1% of pairings of all heavy chain designs, centred on 2.08 (5% of these signals below 0.84); values are not corrected for it. The control count says in how many pairings with the empty strains this scFv gave a signal, with their mean in brackets. The parent sequence was in this pool as ten entries: three were never detected, three once, and four in most replicates, with averages from 0.34 to 2.37. A sequence measured in both rounds can read differently, since the two assays cover different ranges.